This is an account of results in patent US7507758B2, “4-alkyl-/4-alkenyl-/4-alkynyl methyl/-1-aryl-cyclohexylamine compounds” (dated 2009).

Chains of the proteins cited; added tags and fusions are not shown.
UniProt P35372, whole entry, looked up: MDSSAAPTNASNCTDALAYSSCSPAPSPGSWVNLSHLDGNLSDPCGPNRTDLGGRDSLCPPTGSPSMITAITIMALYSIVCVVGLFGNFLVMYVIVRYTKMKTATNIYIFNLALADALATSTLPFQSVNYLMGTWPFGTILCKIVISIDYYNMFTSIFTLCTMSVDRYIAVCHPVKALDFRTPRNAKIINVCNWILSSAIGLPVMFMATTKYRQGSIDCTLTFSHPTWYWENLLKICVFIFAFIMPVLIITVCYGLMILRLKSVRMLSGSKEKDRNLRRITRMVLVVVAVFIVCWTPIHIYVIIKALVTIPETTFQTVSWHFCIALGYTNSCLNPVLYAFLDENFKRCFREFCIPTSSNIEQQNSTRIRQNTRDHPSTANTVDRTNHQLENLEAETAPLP

The target of the experiment is human μ-opiate receptor (Homo sapiens, UniProt P35372). The experiment is described as follows: μ-binding: [3H]-naloxone displacement, receptor membrane preparation of CHO-K1 cells. The note with it: [3H]-naloxone 1 nmol/l.

In general, Ki refers to a measure of affinity in units of concentration, obtained from inhibition or displacement. As to `CN(C)C1(c2ccccc2)CCC(C(O)C#Cc2cn(C(=O)OC(C)(C)C)c3ccccc23)CC1` (centres unmarked), the Ki (read-out: μ Ki, CHO-K1 membranes, Cheng-Prusoff conversion) turned out to be 88 nM.

For the compound “3-[3-tert-butoxycarbonyloxy-3-(4-dimethylamino-4-phenylcyclohexyl)-prop-1-ynyl]indole-1-carboxylic acid-tert-butyl ester, polar diastereoisomer”, where the note is “test substance 1 μM”, the “μ % inhibition [1 μM]” value came out at 55%.
